Assay results reported in patent US20210228523A1, “MODULATORS OF SESTRIN-GATOR2 INTERACTION AND USES THEREOF” (Navitor Pharmaceuticals, Inc., priority 2017, published 2021).

System: mTORC1
Assay: Western blot of pS6 in rat brain and selected peripheral organs
Assay type: in vivo
Conditions: Example D; Leu 500 mg/kg oral; 1 hr post-dose
Protocol: Study Design: Thirty (30) male rats weighing between 175 and 200 g were randomized into 3 study groups (n=10), following a 5-day acclimation period. One hour following dosing rats were sacrificed by conscious decapitation, plasma, brain and selected peripheral tissues were harvested for compound level and WB analysis. Tissues were prepared for WB to quantitate the mTORC1 substrate pS6 as a measure of mTORC1 activity.
Preparation of Test Articles: NV-5138 (Navitor, Lot #12) and Leucine (Leu, Sigma; #L8912) were prepared by dissolving in Veh (0.5% methylcellulose/0.1% Tween-80) at a concentration of 16 mg/mL and 100 mg/mL, respectively. The dosing volume based on the weight of the animal (10 mL/kg) was administered by oral gavage. Test articles were prepared the day of dosing.
Tissues Preparations: One hour following dosing rats were sacrificed by conscious decapitation, plasma, brain and peripheral tissues were harvested and immediately frozen in liquid nitrogen. Tissues were thawed and homogenized for 1 min twice using MP homogenizer in Lysis Buffer (Cell lysis buffer: 1% Triton X-100, 50 mM HEPES pH 7.4, 100 mM NaCl, 2 mM EDTA, 10 mM Beta-glycerophosphate, 10 mM Sodium pyrophosphate, and 1 protease inhibitor tab per 50 mL fresh) at 4° C. Lysates were then sonicated on ice for 20 s at 50% amplitude. The protein concentration was determined by Bradford assay and all samples were mixed with loading buffer (50 mM Tris-HCl pH 6.8, 2% SDS, 5% glycerol, 5% β-mercaptoethanol and 0.01% Bromophenol blue) and stored at −20° C. until WB analysis.
Western Blot (WB) Analysis. Equal amounts of each sample (15 μg of total protein) were loaded and separated on NuPAGE 4-12% Bis-Tris gels and transferred to PVDF membrane (Immobilon-FL PVDF membrane, Millipore) using CAPS Buffer (10 mM 3-(Cyclohexylamino)-1-propanesulfonic acid, 12.5% Ethanol pH=10). After transfer, membranes were incubated for 1 hr at room temperature in Odyssey blocking buffer (Licor). After blocking, membranes were incubated at 4° C. overnight with primary antibodies. Primary antibodies used were rabbit anti-[…] (cell signaling; #5364) at 1:1000, mouse anti-GAPDH (Sigma; #G8795) at 1:1000 and mouse anti-a-tubulin (Sigma; #T5168) at 1:10000 in Odyssey blocking buffer. The next day, membranes were washed three times in 1×TBS-Tween (25 mM Tris, pH 7.4, 3.0 mM KCl, 140 mM NaCl and 0.05% Tween-20) and incubated with dye-coupled secondary antibodies (goat anti-mouse IRdye680, and goat anti-rabbit IRdye800 from LI-COR) at 1:20000 in Odyssey blocking buffer for 30 min then wash three times in IX TBS-Tween. Signals were quantified using the Odyssey Infrared Imaging System (LI-COR Bioscience). The resulting densitometric readings were used to generate a ratio of phopho-protein to a-tubulin or GAPDH. The resulting ratio was further normalized to vehicle treated control group.

SMILES: CC(C)C[C@H](N)C(=O)O [Leu, Leucine, reference compound]
- level of pS6 in rat epididymal fat: significantly increased
- level of pS6 in rat heart: significantly increased
- level of pS6 in rat kidney: significantly increased
- level of pS6 in rat tibialis anterior: significantly increased
- pS6 levels in liver: significant increase
- pS6 levels in testes: significant increase
